This assay deals with MiaPaCa2 cells. The experiment in a line: cell-based HT lactate assay by colorimetric/fluorometric detection (cellular inhibition of lactate production). The conditions noted are these: read-out: Lactate activity, assay of Example 6.

Where only a bound is given, the exact number is not on record here.

As to `Cc1ccc(C#Cc2cc(-c3nn(-c4nc(C(N)=O)cs4)c(CC4CC4)c3Cc3ccc(S(N)(=O)=O)c(F)c3)ccc2F)s1`, the IC50 was less than 1000 nM.
